Patent publication US20250250267A1, “NITROGEN-CONTAINING BRIDGED HETEROCYCLIC COMPOUND, PREPARATION METHOD THEREFOR, AND MEDICAL USE THEREOF” (Jiangsu Hengrui Pharmaceuticals Co., Ltd., priority 2020, published 2025)

Key:
[1] = molecular target: human complement factor B (Homo sapiens (Human), UniProt P00751); assay: biochemical
[2] = tested on: passive heymann nephritis rats; assay: Therapeutic effects on Heymann nephritis in rats induced by sheep anti-rat Fx1A serum; assay type: in vivo; settings: for decrease in the ratio of total protein/creatinine in rat urine compared to the model group: day 14
Description: Experimental animals: laboratory male SD rats, provided by Vital River Laboratory Animal Technology Co., Ltd. (production license number: SCXK (Zhejiang) 2019-0001; animal certificate number: 20210401Abzz0619000322; weighing 180-200 g at purchase).
After the acclimatization, the male SD rats were grouped as follows according to total protein in urine and body weight in the 2 days before the experiment:
On day 0 of the experiment, the model group and administration groups were given a single tail vein injection of Fx1A serum (5 mL/kg), and the normal group was given a tail vein injection of normal goat serum. […] The experiment ended on day 15. Two-hour urine was collected on days 2, 4, 6, 8, 11, and 14 and assayed for creatinine and total protein. Serum was collected on day 15 for complement activation fragment (C3d+iC3b) analysis.
The experimental data are expressed as mean±standard error (SEM). Statistical comparison was performed using Excel software t-test. The data of the model group and the data of the blank control group were analyzed and compared to judge whether a significant mathematical statistical significance exists. *P<0.05 indicates a significant difference between the model group and the blank control group, **P<0.01 indicates a highly significant difference between the model group and the blank control group, and ***P<0.001 indicates a very highly significant difference between the model group and the blank control group. #P<0.05 indicates a significant difference between an administration group and the model group, ##P<0.01 indicates a highly significant difference between an administration group and the model group, and ###P<0.001 indicates a very highly significant difference between an administration group and the model group.

CCO[C@H]1C[C@H]2CC[C@](c3ccc(C(=O)O)cc3)(C1)N2Cc1c(OC)cc(C)c2[nH]ccc12 (relative stereo) [Example 1, (±)-rel-4-((1S,3S,5R)-3-Ethoxy-8-((5-methoxy-7-methyl-1H-indol-4-yl)methyl)-8-azabicyclo[3.2.1]octan-1-yl)benzoic acid]
IC50 [1]: 4.2 nM

CCO[C@H]1C[C@H]2CCC(c3ccc(C(=O)O)cc3)(C1)N2Cc1c(OC)cc(C)c2[nH]ccc12 (stereo in doubt) [Example 1-1, 4-((1S,3S,5R)-3-Ethoxy-8-((5-methoxy-7-methyl-1H-indol-4-yl)methyl)-8-azabicyclo[3.2.1]octan-1-yl)benzoic acid]
day from which statistical decreases in urine total protein/creatinine ratio began ([2]; 10 mg/kg (low-dose) orally twice daily): 11 days | decrease in the ratio of total protein/creatinine in rat urine compared to the model group ([2]; 10 mg/kg orally twice daily): 48.1% | day from which statistical decreases in urine total protein/creatinine ratio began ([2]; 30 mg/kg (medium-dose) orally twice daily): 11 days | decrease in the ratio of total protein/creatinine in rat urine compared to the model group ([2]; 30 mg/kg orally twice daily): 70.9% | day from which statistical decreases in urine total protein/creatinine ratio began ([2]; 90 mg/kg (high-dose) orally twice daily): 8 days | decrease in the ratio of total protein/creatinine in rat urine compared to the model group ([2]; 90 mg/kg orally twice daily): 77.2% | dose dependence of the decrease in urine total protein/creatinine ratio ([2]; day 14, across dose groups): significantly dose-dependent | IC50 [1]: 1.3 nM

CCO[C@@H]1C[C@@H]2CCC(c3ccc(C(=O)O)cc3)(C1)N2Cc1c(OC)cc(C)c2[nH]ccc12 (stereo in doubt) [Example 1-2, 4-((1R,3R,5S)-3-Ethoxy-8-((5-methoxy-7-methyl-1H-indol-4-yl)methyl)-8-azabicyclo[3.2.1]octan-1-yl)benzoic acid]
IC50 [1]: 72.2 nM
